Experimental data from patent US20240360179A1, “STAPLED PEPTIDES AND METHODS THEREOF” (FOG PHARMACEUTICALS, INC., priority 2021, published 2024).

Chains of the proteins cited; added tags and fusions are not shown.
UniProt P35222, whole entry: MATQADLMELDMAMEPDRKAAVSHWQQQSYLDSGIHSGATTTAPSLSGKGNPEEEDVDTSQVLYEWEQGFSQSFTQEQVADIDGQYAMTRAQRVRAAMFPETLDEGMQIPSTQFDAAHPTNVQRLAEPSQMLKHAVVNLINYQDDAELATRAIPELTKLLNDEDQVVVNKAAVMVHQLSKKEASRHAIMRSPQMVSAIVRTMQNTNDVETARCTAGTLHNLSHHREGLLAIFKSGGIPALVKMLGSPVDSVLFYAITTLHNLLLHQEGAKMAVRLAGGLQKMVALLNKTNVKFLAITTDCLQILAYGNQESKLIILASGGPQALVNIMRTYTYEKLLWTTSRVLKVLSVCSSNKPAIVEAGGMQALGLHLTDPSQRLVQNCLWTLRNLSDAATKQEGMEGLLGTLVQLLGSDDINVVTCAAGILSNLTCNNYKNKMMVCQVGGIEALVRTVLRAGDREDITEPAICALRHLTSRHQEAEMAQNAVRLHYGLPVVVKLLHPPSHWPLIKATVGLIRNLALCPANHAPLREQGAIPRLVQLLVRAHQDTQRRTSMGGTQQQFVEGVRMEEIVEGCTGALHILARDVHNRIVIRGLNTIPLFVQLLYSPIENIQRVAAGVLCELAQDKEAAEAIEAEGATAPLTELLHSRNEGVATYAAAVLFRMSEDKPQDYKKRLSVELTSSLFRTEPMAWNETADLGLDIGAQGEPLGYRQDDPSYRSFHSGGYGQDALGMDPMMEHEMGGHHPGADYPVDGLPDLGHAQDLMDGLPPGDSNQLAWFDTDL

Columns and labels:
[1] = molecular target: T1, full-length B-Catenin (Uniprot ID P35222) (Homo sapiens, UniProt P35222); assay: biochemical; type: binding; conditions: beta-Catenin FP IC50 (nM), competition fluorescence polarization
T1 construct: 10 nM full-length B-Catenin (Uniprot ID P35222)

[2] = molecular target: beta-catenin/TCF4 interaction (Homo sapiens, UniProt P35222); assay: cell-based; parameters: host or cells: HEK293; conditions: NanoBRET Abs IC50 (uM)

Structure (SMILES) | IC50 [1] [nM] | IC50 [2] [µM] | IC50 ([2]; absolute IC50) [µM]
CC[C@H](C)[C@@H]1NC(=O)[C@H](CC(=O)O)NC(=O)C2(CCCC=CCCCOC(=O)N3CC[C@@]4(C3)NC(=O)[C@H](CCCCNC(=O)CC[C@@H](C(=O)N[C@@H](C)C(N)=O)NC(=O)[C@H](Cc3csc5ccccc35)NC(=O)[C@H](Cc3ccccc3C(F)(F)F)NC4=O)NC(=O)[C@H](Cc3ccccc3)NC(=O)[C@H](C)NC(=O)C(C)(C)NC1=O)CCCC=CC[C@]1(CCCN1C(C)=O)C(=O)N[C@@H](CC(=O)O)C(=O)N[C@@H](CC(C)(C)C)C(=O)N2 (relative stereo) [I-222, Ac-PL3-Asp-Npg-B5-Asp-Ile-Aib-Ala-Phe-Lys*3-PyrS2-2F3MeF-BztA-GlnR*3-Ala-NH2] | > 1000 | > 10 | 
CCCC[C@@H]1NC(=O)[C@H](Cc2cccc(C(=O)O)c2)NC(=O)[C@H](CC(=O)O)NC(=O)C2(CCCC=CCCCOC(=O)N3CC[C@@]4(C3)NC(=O)[C@H](CCCCNC(=O)CC[C@@H](C(=O)N[C@@H](CC(C)C)C(=O)N[C@@H](CO)C(N)=O)NC(=O)[C@H](Cc3csc5ccccc35)NC(=O)[C@H](Cc3ccccc3C(F)(F)F)NC4=O)NC(=O)[C@H](Cc3ccccc3)NC(=O)[C@H](C)NC1=O)CCCC=CC[C@]1(CCCN1C(C)=O)C(=O)N[C@@H](CC(N)=O)C(=O)N[C@@H](CC(C)(C)C)C(=O)N2 (relative stereo) [I-143, Ac-PL3-Asn-Npg-B5-Asp-3COOHF-nLeu-Ala-Phe-Lys*3-PyrS2-2F3MeF-BztA-GlnR*3-Leu-Ser-NH2] | 200 to 750 | > 10 | 
CC(=O)N1CCC[C@]12CC=CCCCC1(CCCC=CCCCOC(=O)N3CC[C@@]4(C3)NC(=O)[C@H](CCCCNC(=O)CC[C@@H](C(=O)N[C@@H](C)C(N)=O)NC(=O)[C@H](Cc3csc5ccccc35)NC(=O)[C@H](Cc3ccsc3)NC4=O)NC(=O)[C@H](Cc3ccccc3)NC(=O)[C@H](C)NC(=O)C(C)(C)NC(=O)[C@H](CC(=O)O)NC(=O)[C@H](CCC(=O)O)NC1=O)NC(=O)[C@H](CC(C)(C)C)NC(=O)[C@H](CCCC(=O)O)NC2=O (relative stereo) [I-555, Ac-PL3-Aad-Npg-B5-Glu-Asp-Aib-Ala-Phe-Lys*3-PyrS2-3Thi-BztA-GlnR*3-Ala-NH2] | > 1000 |  | > 10
CCCC[C@@H]1NC(=O)[C@H](Cc2cccc(C(=O)O)c2)NC(=O)[C@H](CC(=O)O)NC(=O)C2(CCCC=CCCCOC(=O)N3CC[C@@]4(C3)NC(=O)[C@H](CCCCNC(=O)CC[C@@H](C(=O)N[C@@H](C)C(N)=O)NC(=O)[C@H](Cc3csc5ccccc35)NC(=O)[C@H](Cc3ccsc3)NC4=O)NC(=O)[C@H](Cc3ccccc3)NC(=O)[C@H](C)NC1=O)CCCC=CC[C@]1(CCCN1C(C)=O)C(=O)N[C@@H](CC(=O)O)C(=O)N[C@@H](CC(C)(C)C)C(=O)N2 (relative stereo) [I-70, Ac-PL3-Asp-Npg-B5-Asp-3COOHF-nLeu-Ala-Phe-Lys*3-PyrS2-3Thi-BztA-GlnR*3-Ala-NH2] | < 50 | < 1.5 | 
CC(=O)N1CCC[C@]12CC=CCCCC1(CCCC=CCCCOC(=O)N3CC[C@@]4(C3)NC(=O)[C@H](CCCCNC(=O)CC[C@@H](C(=O)N[C@@H](C)C(N)=O)NC(=O)[C@H](Cc3csc5ccccc35)NC(=O)[C@H](Cc3c[nH]cn3)NC4=O)NC(=O)[C@H](Cc3ccccc3)NC(=O)[C@H](C)NC(=O)C(C)(C)NC(=O)[C@H](Cc3cccc(C(=O)O)c3)NC(=O)[C@H](CC(=O)O)NC1=O)NC(=O)[C@H](CC(C)(C)C)NC(=O)[C@H](CC(=O)O)NC2=O (relative stereo) [I-302, Ac-PL3-Asp-Npg-B5-Asp-3COOHF-Aib-Ala-Phe-Lys*3-PyrS2-His-BztA-GlnR*3-Ala-NH2] | < 50 | > 10 | 
CC(=O)N1CCC[C@]12CC=CCCCC1(CCCC=CCCCOC(=O)N3CC[C@@](C(=O)N[C@@H](Cc4ccccc4C(F)(F)F)C(=O)N[C@@H](Cc4csc5ccccc45)C(=O)N[C@@H](CCC(N)=O)C(N)=O)(C3)NC(=O)[C@@H]3Cc4cn(nn4)CCCC[C@H](NC(=O)[C@H](Cc4cccc(C(=O)O)c4)NC(=O)[C@H](CC(=O)O)NC1=O)C(=O)N[C@@H](C)C(=O)N[C@@H](Cc1ccccc1)C(=O)N3)NC(=O)[C@H](CC(C)(C)C)NC(=O)[C@H](CC(=O)O)NC2=O (stereo partly drawn) [I-31, Ac-PL3-Asp-Npg-B5-Asp-3COOHF-TriAzLys*3-Ala-Phe-sAla*3-PyrS2-2F3MeF-BztA-Gln-NH2] | < 50 | > 10 | 

The remaining lines, values ahead:

IC50 [1] [nM] | IC50 [2] [µM] | IC50 ([2]; absolute IC50) [µM] | Structure (SMILES)
< 50 | > 10 |  | CC(=O)N1CCC[C@]12CC=CCCCC1(CCCC=CCCCOC(=O)N3CC[C@@](C(=O)N[C@@H](Cc4ccsc4)C(=O)N[C@@H](Cc4csc5ccccc45)C(=O)N[C@@H](CCC(N)=O)C(N)=O)(C3)NC(=O)[C@@H]3Cc4cn(nn4)CCCC[C@H](NC(=O)[C@H](Cc4cccc(C(=O)O)c4)NC(=O)[C@H](CC(=O)O)NC1=O)C(=O)N[C@@H](C)C(=O)N[C@@H](Cc1ccccc1)C(=O)N3)NC(=O)[C@H](CC(C)(C)C)NC(=O)[C@H](CC(=O)O)NC2=O (stereo partly drawn) [I-30, Ac-PL3-Asp-Npg-B5-Asp-3COOHF-TriAzLys*3-Ala-Phe-sAla*3-PyrS2-3Thi-BztA-Gln-NH2]
< 50 |  | 3 to 10 | CC(=O)N1CCC[C@]12CC=CCCCC1(CCCC=CCCCOC(=O)N3CC[C@@]4(C3)NC(=O)[C@H](Cc3cn(nn3)CCCC[C@@H](C(=O)N[C@@H](C)C(N)=O)NC(=O)[C@H](Cc3csc5ccccc35)NC(=O)[C@H](Cc3ccsc3)NC4=O)NC(=O)[C@H](Cc3ccccc3)NC(=O)[C@H](C)NC(=O)[C@H](C)NC(=O)[C@H](Cc3cccc(C(=O)O)c3)NC(=O)[C@H](CC(=O)O)NC1=O)NC(=O)[C@H](CC(C)(C)C)NC(=O)[C@H](CC(=O)O)NC2=O (stereo partly drawn) [I-338, Ac-PL3-Asp-Npg-B5-Asp-3COOHF-Ala-Ala-Phe-sAla*3-PyrS2-3Thi-BztA-TriAzLys*3-Ala-NH2]
< 50 | 3 to 10 |  | CC(=O)N1CCC[C@]12CC=CCCCC1(CCCC=CCCCOC(=O)N3CC[C@@]4(C3)NC(=O)[C@H](COCc3cn(nn3)CCCC[C@@H](C(=O)N[C@@H](C)C(N)=O)NC(=O)[C@H](Cc3csc5ccccc35)NC(=O)[C@H](Cc3ccsc3)NC4=O)NC(=O)[C@H](Cc3ccccc3)NC(=O)[C@H](C)NC(=O)C(C)(C)NC(=O)[C@H](Cc3cccc(C(=O)O)c3)NC(=O)[C@H](CC(=O)O)NC1=O)NC(=O)[C@H](CC(C)(C)C)NC(=O)[C@H](CC(=O)O)NC2=O (relative stereo) [I-263, Ac-PL3-Asp-Npg-B5-Asp-3COOHF-Aib-Ala-Phe-sCH2S*3-PyrS2-3Thi-BztA-TriAzLys*3-Ala-NH2]
< 50 | 1.5 to 3 |  | CC(=O)N1CCC[C@]12CC=CCCCC1(CCCC=CCCCOC(=O)N3CC[C@@]4(C3)NC(=O)[C@H](CCCCNC(=O)CC[C@@H](C(=O)N[C@@H](CC(C)C)C(=O)N[C@@H](CO)C(N)=O)NC(=O)[C@H](Cc3csc5ccccc35)NC(=O)[C@H](Cc3ccccc3C(F)(F)F)NC4=O)NC(=O)[C@H](Cc3ccccc3)NC(=O)[C@H](C)NC(=O)[C@H](C)NC(=O)[C@H](Cc3cccc(C(=O)O)c3)NC(=O)[C@H](CC(=O)O)NC1=O)NC(=O)[C@H](CC(C)(C)C)NC(=O)[C@H](CC(=O)O)NC2=O (relative stereo) [I-136, Ac-PL3-Asp-Npg-B5-Asp-3COOHF-Ala-Ala-Phe-Lys*3-PyrS2-2F3MeF-BztA-GlnR*3-Leu-Ser-NH2]
